# Results taken from ChEMBL document CHEMBL1155492, “Evaluation of thieno[3,2-b]pyrrole[3,2-d]pyridazinones as activators of the tumor cell specific M2 isoform of pyruvate kinase” (Bioorg Med Chem Lett, 2010).
# Protein sequences, listed by entry. Tags and fused reporters are not part of them.
# UniProt P14618, whole entry, looked up: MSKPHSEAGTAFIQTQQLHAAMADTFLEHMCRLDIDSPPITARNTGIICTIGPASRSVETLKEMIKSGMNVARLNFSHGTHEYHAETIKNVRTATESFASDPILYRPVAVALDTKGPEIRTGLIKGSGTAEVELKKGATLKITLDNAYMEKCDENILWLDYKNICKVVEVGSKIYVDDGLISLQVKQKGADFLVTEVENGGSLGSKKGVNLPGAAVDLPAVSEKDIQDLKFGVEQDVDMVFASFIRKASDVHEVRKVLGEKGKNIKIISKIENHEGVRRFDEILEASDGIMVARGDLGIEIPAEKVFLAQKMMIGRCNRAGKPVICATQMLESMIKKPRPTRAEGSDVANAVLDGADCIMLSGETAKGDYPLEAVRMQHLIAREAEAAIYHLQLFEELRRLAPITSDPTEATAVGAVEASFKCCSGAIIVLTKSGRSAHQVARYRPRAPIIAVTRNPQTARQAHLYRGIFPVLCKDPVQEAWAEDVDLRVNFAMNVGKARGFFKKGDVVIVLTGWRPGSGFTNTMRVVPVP
# Molecular target: Pyruvate kinase PKM (Homo sapiens, UniProt P14618)
# Assay: Activation of human PKM2 assessed as pyruvate formation at 57 uM after 1 hr by fluorescent pyruvate kinase-lactate dehydrogenase coupled assay relative to fructose-1,6-bis-phosphate
compound,measurement,value
Cc1cc2c(s1)c1cnn(Cc3ccccc3F)c(=O)c1n2C,Activity,22.4%
